# Experiments:
# The chains behind the UniProt entries cited, without tags or fusion partners. Where a name states a change or a piece, a line headed by the entry shows the natural chain unless it says otherwise.
# UniProt P09917: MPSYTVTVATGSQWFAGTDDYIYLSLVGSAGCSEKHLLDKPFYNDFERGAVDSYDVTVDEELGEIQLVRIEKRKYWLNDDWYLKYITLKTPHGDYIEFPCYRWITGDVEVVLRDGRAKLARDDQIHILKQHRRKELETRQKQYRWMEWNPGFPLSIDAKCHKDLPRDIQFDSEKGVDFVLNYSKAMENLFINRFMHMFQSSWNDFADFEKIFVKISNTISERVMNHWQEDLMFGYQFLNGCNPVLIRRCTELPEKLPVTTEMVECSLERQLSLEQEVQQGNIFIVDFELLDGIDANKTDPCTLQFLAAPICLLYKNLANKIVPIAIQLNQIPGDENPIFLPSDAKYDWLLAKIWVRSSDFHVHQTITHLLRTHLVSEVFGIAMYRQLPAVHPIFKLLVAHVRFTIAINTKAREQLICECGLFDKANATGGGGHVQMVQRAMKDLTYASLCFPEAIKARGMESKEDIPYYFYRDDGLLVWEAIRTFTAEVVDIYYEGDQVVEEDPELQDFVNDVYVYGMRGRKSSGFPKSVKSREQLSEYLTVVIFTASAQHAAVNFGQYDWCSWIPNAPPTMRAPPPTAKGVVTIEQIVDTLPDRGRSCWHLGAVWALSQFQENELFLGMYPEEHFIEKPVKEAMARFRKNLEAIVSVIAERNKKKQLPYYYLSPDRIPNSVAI
# 5-LO [1] = target: T1, 5-LO (Homo sapiens, UniProt P09917); details: read-out: IC50 5-LO in intact cells; cited from earlier work
# 5-LO [2] = target: T1, 5-LO; assay: 5-LO product formation in intact PMNL; details: 20 µM AA, 2.5 µM A23187, (95% CI)
# [3] = target: recombinant human 5-LO (r5-LO_WT) (Homo sapiens, UniProt P09917); assay: Determination of r5-LO activity (recombinant wild type 5-LO); details: 3 µg r5-LO_WT, 15 min preincubation on ice, 10 µM AA, 2 mM CaCl2; (95% CI), n = 3–6
Compound,IC50 (5-LO [1]) [µM],"IC50 for inhibition of 5-LO product formation, PMNL (5-LO [2]; n = 3–6)","IC50 for inhibition of 5-LO product formation, PMNL (5-LO [2]; n = 3–6, listed as tyrphostin A1)","IC50 for inhibition of 5-LO product formation, r5-LO_WT [3]"
"1-[6-[[17-β-3-methoxyestra-1,3,5(10)-trien-17-yl]amino]hexyl]-1 H -pyrrole-2,5-dione",10,,,
COc1ccc(C=C(C#N)C#N)cc1,,no inhibition,failed to inhibit,no inhibition

# Source: paper PMC11582101, “Unlocking the potential: unveiling tyrphostins with Michael-reactive cyanoacrylate motif as promising inhibitors of human 5-lipoxygenase” (Pflugers Archiv, 2024)
